The source of these data is patent publication US20100028266A1, “Composition and methods for treating allergic response” (Alpha Synergy Development. Inc., priority 2008, published 2010).

Data set [1] deals with eyes of a patient with an ocular condition (baseline redness 4/4). As to conditions: brimonidine at 0.033%, left eye only, 4 hrs after previous treatment.
Data set [2] has as its system patient with nasal congestion. As to conditions: 0.03% Brimonidine nasal spray repeated for one week.
The test system of data set [3] is Lasik patients (Intralase femtosecond laser). As to conditions: Brimonidine 0.2%, used off label, reported; cited from earlier work.

As for `Brc1c(N=C2NCCN2)ccc2nccnc12.O=C(O)C(O)C(O)C(=O)O` [brimonidine, 5-bromo-6-(2-imidazolidinylideneamino)quinoxaline L-tartrate], the “rebound hyperemia after third application” value in data set [1] was “without rebound hyperemia”. Besides, the rebound result in data set [2] was “without rebound”. Further, the flap dislocation rates in data set [3] is reported as 5-10%.
